Our source for the IC50 values is patent US20190374526A1, “Substituted Heterocyclic Compounds as Inhibitors of PRDM9” (Merck Sharp & Dohme Corp., priority 2018, published 2019).

By UniProt entry, the sequences of proteins in these tests, tags left out. Residues count along the entry.
UniProt Q9NQV7, 195-385 limits assumed: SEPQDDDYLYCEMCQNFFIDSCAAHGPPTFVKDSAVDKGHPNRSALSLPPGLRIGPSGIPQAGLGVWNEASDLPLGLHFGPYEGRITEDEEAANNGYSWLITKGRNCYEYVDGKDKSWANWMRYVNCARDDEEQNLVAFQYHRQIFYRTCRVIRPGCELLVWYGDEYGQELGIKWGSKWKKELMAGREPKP

For the experiment, the target named is hPRDM9 (amino acids 195-385) (Homo sapiens, UniProt Q9NQV7). The experiment can be described thus: PRDM9 biochemical assay (radiometric, 3[H] methyl transfer from SAM to biotinylated histone H3 peptide). Particulars: read-out: PRDM9 IC50; 1 nM hPRDM9, 1 μM biotinylated H3(1-25)K4 peptide, 5 μM 3[H]-SAM, 55 μM un-labeled SAM, 25° C., 30 minutes. As to the method:
The PRDM9 biochemical assay was carried out using a radiometric format involving the transfer of ^3[H] methyl group from S-adenosyl methionine (SAM) to a biotinylated histone H3 peptide (H3(1-25)K4). 10 mM compounds in DMSO were diluted 20 fold in assay buffer (10 mM Tris-HCl, pH 8.5, 10 mM DTT, and 0.01% Triton X-100) before adding […] to a well in a 384 well polypropylene microplate plate and adding 8 μl of reaction mix (1.25 nM hPRDM9 (amino acids 195-385), 1.25 μM biotinylated H3 peptide in assay buffer). The ^3[H]-SAM and cold SAM stock solutions were diluted to 50 μM and 550 μM respectively in assay buffer before aliquoting 1 μl of 50 μM ^3[H]-SAM, 550 μM SAM into each well to initiate the reaction. The assay was performed at 25° C. at the final concentrations of 1 nM hPRDM9, 1 μM peptide, 5 μM ^3[H]-SAM, and 55 μM un-labeled SAM in assay buffer. The reaction was quenched after 30 minutes by adding 25 μl 7.5 M Guanidine-HCl. Quenched reactions were transferred to streptavidin coated Flashplates, diluted two fold in assay buffer, incubated for 1 hour, and read on a Perkin Elmer Topcount instrument. Compound activity was expressed relative to activity of 0.5% (v/v) DMSO treated samples and fit to a four parameter logistic equation to determine IC50 values.

By IC50 is commonly meant the concentration at which inhibition is half-maximal.

Bounds are passed on as bounds.

Turning to `Cc1cc(NCC2COCCN(c3nc(-c4cc(Cl)cc(Cl)c4)no3)C2)ccn1` (centres unmarked), the IC50 is 17.8 µM. As for `Cc1cc(NC2CCCCN(c3nc(-c4cc(Cl)cc(Cl)c4)no3)C2)ccn1` (centres unmarked), the IC50 turned out to be 13.9 µM.

As for `Cc1cc(N[C@H]2CCN(c3nc(-c4cc(Cl)cc(Cl)c4)no3)C2)ccn1`, the IC50 came to 4.33 µM. Turning to `Cc1cc(N2CC3CCN(c4nc(-c5cc(Cl)cc(Cl)c5)no4)CC3C2)ccn1` (centres unmarked), the IC50 was 27.9 µM.

For `Cc1cc(N2CCC(C)(CNc3nc(-c4cc(Cl)cc(Cl)c4)no3)CC2)ccn1`, the IC50 came out at 0.441 µM. To `Cc1cc(N2CCCCC2CCNc2nc(-c3cc(Cl)cc(Cl)c3)no2)ccn1` (centres unmarked) belongs 18.4 µM; to `Cc1cc(N2C[C@H]3CCN(c4nc(-c5cc(Cl)cc(Cl)c5)no4)[C@H]3C2)ccn1`, 2.4 µM. Take `Cc1cc(N2CCC3C(C2)CN3c2nc(-c3cc(Cl)cc(Cl)c3)no2)ccn1` (centres unmarked): the IC50 stood at 25.7 µM. As to `Cc1cc(NC2CCN(c3nc(-c4cc(Cl)cc(Cl)c4)no3)C2)ccn1` (centres unmarked), the IC50 was 5.58 µM. In the case of `Cc1cc(N2CCC(C)(CNc3nc(-c4cc(Cl)cc(Cl)c4)no3)C2)ccn1` (centres unmarked), the IC50 was found to be 42.6 µM. For `Cc1cc(NCCC2CN(c3nc(-c4cc(Cl)cc(Cl)c4)no3)C2)ccn1`, the IC50 turned out to be 44.1 µM. With `Cc1cc(N2CCC3CN(c4nc(-c5cc(Cl)cc(Cl)c5)no4)CC32)ccn1` (centres unmarked) [Compound 39], the IC50 was found to be 17 µM. For the molecule `Cc1cc(N2C3CCC2CC2(CCN(c4nc(-c5cc(Cl)cc(Cl)c5)no4)C2)C3)ccn1` (centres unmarked), the IC50 is 0.297 µM. Regarding `Cc1cc(NC[C@@H]2CN(c3nc(-c4cc(Cl)cc(Cl)c4)no3)CCO2)ccn1`, the IC50 came out at 1.56 µM. As for `Cc1cc(N[C@@H]2C[C@H](C)N(c3nc(-c4cc(Cl)cc(Cl)c4)no3)C2)ccn1`, the IC50 stood at 10.7 µM. For `Cc1cc(NCCC2CCN(c3nc(-c4cc(Cl)cc(Cl)c4)no3)CC2)ccn1`, the IC50 was 0.37 µM. With `COc1cc(OC)cc(-c2noc(N3CCC4(CC5CCC(C4)N5c4ccnc(C)c4)C3)n2)c1` (centres unmarked) [Compound 158], the IC50 worked out at 2.63 µM. Regarding `Cc1cc(NC2CC3OC2CCC3Nc2nc(-c3cc(Cl)cc(Cl)c3)no2)ccn1` (centres unmarked), the IC50 is 11.3 µM. Turning to `Cc1cc(N[C@@H]2CCCN(c3nc(-c4cc(Cl)cc(Cl)c4)no3)C2)ccn1`, the half-inhibitory concentration (IC50) was not below 50 µM. With `Cc1cc(NCCC(C)Nc2nc(-c3cc(Cl)cc(Cl)c3)no2)ccn1` (centres unmarked), the IC50 turned out to be 36.9 µM. Regarding `Cc1cc(N2C[C@H]3CCN(c4nc(-c5cc(Cl)cc(Cl)c5)no4)CC[C@H]3C2)ccn1` (relative stereo), the 50% inhibitory concentration (IC50) stood at 0.35 µM. To `Cc1cc(NCC2CCN(c3nc(-c4cc(Cl)cc(Cl)c4)no3)C2)ccn1` (centres unmarked) belongs 8 µM; to `Cc1cc(NCCC2CCCCN2c2nc(-c3cc(Cl)cc(Cl)c3)no2)ccn1` (centres unmarked), 21.1 µM.
